{"source": "patent US20260232830A1", "about": "“ANTIGEN BINDING MOLECULE SPECIFICALLY BINDING TO EGFR AND MUC1, DRUG CONJUGATE THEREOF, AND MEDICAL USE THEREOF” (Jiangsu Hengrui Pharmaceuticals Co., Ltd., priority 2023, published 2026)", "key": {"[1]": {"system": "HPAC cells", "assay": "FACS-based determination of affinity of monoclonal antibodies, bispecific antibodies and ADCs for tumor cells", "format": "binding, human", "details": "Table 28", "method": "(§1) The culture medium in the cell culture flask was discarded, and the cells were washed once with PBS and then digested with an appropriate amount of trypsin (Invitrogen, Cat. No. 25200072). HCC827, T47D, and HPAC cells were added to a 96-well plate at 100,000 cells/well. After the plate was centrifuged at 300 g for 5 min, the supernatant was discarded, and the cells were washed once with a PBS buffer containing 2% FBS. The antibodies were 5-fold diluted from a starting concentration of 20 μg/mL using a PBS buffer containing 2% FBS to obtain a total of 8 concentration gradients. The antibody samples were added at 100 μL/well, and the cells were resuspended and incubated at 4° C. for 1 h. After the plate was centrifuged at 300 g for 5 min, the supernatant was discarded, and the cells were washed twice with a PBS buffer containing 2% FBS. […] After the plate was centrifuged at 300 g for 5 min, the supernatant was discarded, and the cells were washed twice with a PBS buffer containing 2% FBS. The cells were resuspended in 100 μL of a PBS buffer containing 2% FBS and analyzed using an instrument."}, "[2]": {"system": "HCC827 cells", "assay": "FACS-based determination of affinity of monoclonal antibodies, bispecific antibodies and ADCs for tumor cells", "format": "binding, human", "details": "Table 28", "method": "as §1"}, "[3]": {"system": "HCC827 cells", "assay": "Determination of endocytic activity (DT3C) of antibodies on tumor cells", "format": "cell-based, human", "details": "Table 29, antibody + DT3C, 72 h, CTG"}, "[4]": {"biological_target": "human EGFR-His antigen (Homo sapiens)", "assay": "Determination of affinity of anti-EGFR antibodies using Biacore", "details": "Table 22, Biacore 8K, 1:1 binding model", "method": "• 1. Instrument: Biacore 8K, Cytiva • 2. Material: Protein A biosensor chip (Cat. #29127556, Cytiva) • 3.\nThe affinity of the antibodies of the present disclosure for the human EGFR-His antigen was determined using a Biacore 8K instrument.\nMethod: An antibody molecule was affinity-captured by a Protein A biosensor chip, and the antigen molecule, at a certain concentration, was then allowed to flow through the surface of the chip continuously for 180 s, followed by 600 s of natural dissociation. The reaction signals were detected in real time by the Biacore 8K instrument to obtain an association and dissociation curve. After the dissociation in each experimental cycle was complete, the biosensor chip was regenerated with 10 mM glycine-HCl (pH 1.5). Data fitting was performed using the Kinetics 1:1 binding model."}, "[5]": {"system": "HPAC cells", "assay": "Determination of endocytic activity (DT3C) of antibodies on tumor cells", "format": "cell-based, human", "details": "Table 29, antibody + DT3C, 72 h, CTG"}}, "data": [{"molecule": "ZalH4: anti-EGFR antibody, zalutumumab variant: VH ZalVH4 (SEQ ID NO: 138), VL ZalVL1 (antibody) heavy: QVQLVESGGGVVQPGRSLRLSCAASGFTFSTYGMHWVRQAPGKGLEWVAVIWDDGSYKYYGDSVKGRFTISRDNSKNTLYLQMNSLRAEDTAVYYCARDGVTMVRGVMKDYFDYWGQGTLVTVSSASTKGPSVFPLAPSSKSTSGGTAALGCLVKDYFPEPVTVSWNSGALTSGVHTFPAVLQSSGLYSLSSVVTVPSSSLGTQTYICNVNHKPSNTKVDKKV[human IgG1 Fc not spelt out] light: DIQLTQSPSSLSASVGDRVTITCRASQDISSALVWYQQKPGKAPKLLIYDASSLESGVPSRFSGSESGTDFTLTISSLQPEDFATYYCQQFNSYPLTFGGGTKVEIKRTVAAPSVFIFPPSDEQLKSGTASVVCLLNNFYPREAKVQWKVDNALQSGNSQESVTEQDSKDSTYSLSSTLTLSKADYEKHKVYACEVTHQGLSSPVTKSFNRGEC", "values": [{"measurement": "EC50", "setting": "[1]", "value": 0.7, "unit": "nM"}, {"measurement": "EC50", "setting": "[2]", "value": 0.91, "unit": "nM"}, {"measurement": "IC50", "setting": "[3]", "value": 1.49, "unit": "nM"}, {"measurement": "Imax %", "setting": "[3]", "value": 83.88, "unit": "%"}, {"measurement": "ka", "setting": "[4]", "value": 47400, "unit": "M⁻¹ s⁻¹"}, {"measurement": "kd", "setting": "[4]", "value": 0.0021, "unit": "s⁻¹"}, {"measurement": "IC50", "setting": "[5]", "value": 0.103, "unit": "nM"}, {"measurement": "Imax %", "setting": "[5]", "value": 24.44, "unit": "%"}]}]}
